Test results taken from US9650405B2, “Modified sophorolipids as oil solubilizing agents” (Polytechnic Institute of New York University, priority 2010, dated 2017).

Text: If the material precipitates upon cooling or was to some extent insoluble, the insoluble material was separated by filtration, dried and weighed.

Natural Sophorolipids [Compound 1]
Solubility: <10000 µg/mL
